{"source": "patent US20110275699A1", "about": "“Treatment For Obesity And Diabetes” (University of California, priority 2010, published 2011)", "molecular_target": "T1, FLAG-tagged USF-1 (wild type, overexpressed in cells) (UniProt P22415)", "T1 sequence (looked up)": "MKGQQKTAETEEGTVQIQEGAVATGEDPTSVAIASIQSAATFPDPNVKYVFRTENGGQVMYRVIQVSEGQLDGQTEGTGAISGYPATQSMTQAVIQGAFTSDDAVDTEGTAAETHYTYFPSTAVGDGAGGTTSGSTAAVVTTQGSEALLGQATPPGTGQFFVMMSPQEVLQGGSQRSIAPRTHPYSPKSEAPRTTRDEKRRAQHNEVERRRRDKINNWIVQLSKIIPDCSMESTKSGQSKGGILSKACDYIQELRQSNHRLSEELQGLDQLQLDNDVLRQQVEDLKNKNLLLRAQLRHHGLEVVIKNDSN", "assay": "cell-based or functional assay"}
{"substance": "DNA-dependent protein kinase (DNA-PK), endogenous (a stretch of the chain, sequence left out) (enzyme)", "values": [{"measurement": "FAS promoter activity (luciferase reporter) after siRNA knockdown of DNA-PK", "result": 65, "unit": "% reduction"}]}
